Values of other authors, collected in publication PMC7175122 (Biomolecules, 2020).
Like-named read-outs stand apart in the source and are kept apart here.

Biological target: T1, VEGF-A165/NRP-1 complex (Homo sapiens, UniProt O14786)
T1 construct: purchased R&D Systems (Minneapolis, MN, USA)
T1 sequence (O14786 22-641 limits assumed): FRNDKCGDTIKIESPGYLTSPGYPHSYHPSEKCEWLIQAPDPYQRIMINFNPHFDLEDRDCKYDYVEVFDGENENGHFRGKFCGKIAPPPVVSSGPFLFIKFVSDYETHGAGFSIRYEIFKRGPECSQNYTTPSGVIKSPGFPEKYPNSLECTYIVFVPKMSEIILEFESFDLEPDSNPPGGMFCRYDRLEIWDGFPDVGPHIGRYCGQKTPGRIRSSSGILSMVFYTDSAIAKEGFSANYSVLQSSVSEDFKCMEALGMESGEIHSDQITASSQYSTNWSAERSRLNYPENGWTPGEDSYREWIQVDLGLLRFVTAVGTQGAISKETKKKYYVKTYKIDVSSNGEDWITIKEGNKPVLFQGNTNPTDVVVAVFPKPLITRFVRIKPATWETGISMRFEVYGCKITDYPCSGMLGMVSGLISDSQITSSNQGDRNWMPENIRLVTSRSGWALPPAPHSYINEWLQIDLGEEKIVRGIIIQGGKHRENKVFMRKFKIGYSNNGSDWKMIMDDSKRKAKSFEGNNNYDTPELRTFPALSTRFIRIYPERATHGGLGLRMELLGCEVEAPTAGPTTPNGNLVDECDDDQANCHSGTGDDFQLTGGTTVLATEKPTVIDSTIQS
Details: cited from earlier work

## ATWLPPR [Compound A7R, heptapeptide NRP-1 ligand identified by phage display]
Binding to NRP-1, read-out: IC50
  IC50: 60 to 84 µM
Reference peptide, read-out: RP IC50
  IC50: 80 µM
